Experiment: Dissolution rate test of Apixaban/carboxylic acid co-crystal (paddle method, Chinese Pharmacopoeia guidelines; equilibrium solubility in dissolution medium)
Format: physicochemical
Conditions: relative to Apixaban; dissolution medium 0.1mol/L hydrochloric acid, 37±0.5°C, paddle method 100rpm, 900ml, 500 mg sample powder
Experimental: Test Example 1: Dissolution rate test of Apixaban/carboxylic acid co-crystal
According to the dissolution rate test guidelines in the current Chinese Pharmacopoeia, a dissolution rate experiment was designed to respectively investigate the dissolution rates of the five Apixaban/carboxylic acid co-crystals prepared by the present invention. The specific scheme is as follows:
Table 6 Dissolution equipment and parameters
0.1mol/L hydrochloric acid solution: 9ml of hydrochloric acid was added into 1000ml of water and stirred well.
After the dissolution conditions were reached, 500 mg of sample powder were weighed and put into a dissolution cup, rotated, and immediately counted the time, after 1, 2, 3, 4, 6, 8, 10, 12, 14, 16, 18, 20, 22 and 24 hours, sampled with a sampling needle equipped with a 10µm polymeric polyethylene filter membrane, and filtered on-line through a 0.45µm polyvinylidene fluoride (PVDF) filter membrane.

Substance | dissolution rate (times that of Apixaban) [times]
Apixaban/L-tartaric acid co-crystal [crystal form V] | 1.45
Apixaban/maleic acid co-crystal [crystal form III] | 1.53
